From publication PMC3194046 (European journal of pharmacology, 2009)

By UniProt entry, the sequences of proteins in these tests, tags left out.
UniProt Q60492, whole entry: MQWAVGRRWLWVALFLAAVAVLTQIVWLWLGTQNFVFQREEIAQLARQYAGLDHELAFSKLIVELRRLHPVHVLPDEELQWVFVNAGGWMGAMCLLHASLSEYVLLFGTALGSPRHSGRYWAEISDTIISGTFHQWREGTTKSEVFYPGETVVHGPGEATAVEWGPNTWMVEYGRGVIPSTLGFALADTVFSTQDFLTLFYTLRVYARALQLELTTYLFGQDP

Molecular target: sigma1 receptor in guinea pig liver membranes (Cavia porcellus, UniProt Q60492)
Assay: Saturation equilibrium binding of [3H]-

Question: Which results are given for `CC(C)=CCN1CC[C@]2(C)c3cc(O)ccc3C[C@H]1[C@H]2C` [[^3H]-(+)-pentazocine]?
Answer: Bmax of [3H]-(+)-pentazocine (guinea pig liver membranes, no added sphingosine): 13.4 ± 0.7 pM/mg; Bmax of [3H]-(+)-pentazocine binding (in presence of 1 and 5 µM sphingosine): not significantly altered
